The values below come from patent publication US20260167620A1, “MULTIFUNCTIONAL COMPOUND CAPABLE OF DEGRADING BTK KINASE, AND COMPOSITION AND USE” (HANGZHOU HEALZEN THERAPEUTICS CO., LTD., priority 2021, published 2026).

Sequences of proteins named here, by UniProt entry; tags and fusion partners are left off.
UniProt Q06187, whole entry: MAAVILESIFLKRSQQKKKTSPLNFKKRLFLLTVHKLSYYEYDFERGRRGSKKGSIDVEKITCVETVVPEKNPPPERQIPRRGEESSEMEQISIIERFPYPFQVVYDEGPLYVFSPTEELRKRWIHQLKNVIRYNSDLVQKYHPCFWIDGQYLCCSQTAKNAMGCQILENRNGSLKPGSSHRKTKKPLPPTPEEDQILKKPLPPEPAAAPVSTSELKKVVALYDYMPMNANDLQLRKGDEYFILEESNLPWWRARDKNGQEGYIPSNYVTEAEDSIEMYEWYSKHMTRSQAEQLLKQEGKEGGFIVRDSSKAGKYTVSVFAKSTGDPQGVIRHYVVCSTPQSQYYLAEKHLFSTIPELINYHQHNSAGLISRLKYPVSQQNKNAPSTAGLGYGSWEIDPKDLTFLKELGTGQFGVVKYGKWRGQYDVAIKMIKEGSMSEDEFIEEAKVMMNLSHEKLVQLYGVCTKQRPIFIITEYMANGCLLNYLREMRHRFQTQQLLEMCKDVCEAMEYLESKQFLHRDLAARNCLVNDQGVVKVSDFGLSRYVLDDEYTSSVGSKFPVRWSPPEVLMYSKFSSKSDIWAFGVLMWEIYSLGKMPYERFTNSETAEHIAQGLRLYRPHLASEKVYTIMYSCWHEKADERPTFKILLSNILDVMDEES

A word on the DC50: it is the midpoint of the concentration-degradation curve. Read a high DC50 as degradation only at high concentration. As usually defined, the IC50 is the concentration that gives 50% inhibition.

Where only a bound is given, the exact number is not on record here.

Series [1] can be described thus: Mouse absorption test. The settings on record: mice, intragastric 10 mg/kg, plasma. On the procedure:
Experimental method: mice were used as experimental animals, and drugs were administered intragastrically at 10 mg/kg (5% DMSO+5% Solutol+90% saline). The blood collection time points for intragastric administration were 0.25, 0.5, 1, 2, 4, 6, 8, and 24 h. 0.3 ml of whole blood was taken, and 0.1 ml of plasma was taken after centrifugation and analyzed by LC-MS.

Series [2] in a line: Liver microsomal metabolic stability, human. The settings on record: human liver microsomes, NADPH, 37° C. How it is done:
(§1) Under the condition of ice bath, 1 mg of human or Mouse liver microparticles was add to PBS (1 mL) buffer, then NADPH (20 μL) was added, and incubated at 37° C. for 5 min. 10 μL of the compound to be tested was added, then suck several times with a pipette and divide into 3 aliquots of 330 μL; each and then samples were taken at 0, 15, 30, 60 and 120 min respectively. 10 μL of the solution was taken with a pipette each time and added to 490 μL of the solution containing the internal standard compound. The resulting solution was vortexed and then placed on ice, and then sampling at another time point continues. All samples were centrifuged at 10,000 rpm for 10 min, and the supernatant was taken for LC/MS testing. The metabolism of the compound in liver microsomes was calculated based on the peak area.

Series [3] is described as follows: Liver microsomal metabolic stability, mouse. The settings on record: mouse liver microsomes, NADPH, 37° C. How it is done: as §1
The target in series [4] is BTK (Homo sapiens, UniProt Q06187). In words: BTK degradation activity test in Mino cells (Westernblot or Elisa). Format: cell-based. The settings on record: 24-72 h incubation. How it is done: The Mino cell line cells are 0.5˜1 million/well in 6-well plates. The compounds are diluted to different concentrations, added to the plate, and after 24-72 h of incubation, the cells are collected. After the cells were lysed, the total protein concentration in each well was determined with a BCA kit. The amount of BTK is determined using the Westernblot or Elisa method.

The subject of series [5] is OCI-LY10 cells. Kind of series: Inhibitory activity on OCI-LY10 cell proliferation (MTS). The settings on record: read-out: OCI-ly10 IC50, 72 h or 168 h. On the procedure:
(§2) The anti-tumor efficacy of the compounds was tested by measuring their inhibitory effects on OCI-LY10 and Mino cell proliferation. OCI-LY10 and Mino cells were cultured in RPM-1640 medium containing […] fetal calf serum. OCI-LY10 and Mino cells were digested, inoculated in a 96-well plate at a cell concentration of 10000 cells/well, and incubated overnight at 37° C., 5% CO2. Compounds of different concentrations (1000 nM, 4-fold dilution, 8 points) were added to the 96-well plate and incubated for 72 h or 168 h at 37° C. and […], and then 20 μL of MTS was added to each well. After incubation for 2 h, 25 μl of 10% SDS was added to each well to terminate the reaction. The absorbance at 490 nm and 650 nm were measured with a microplate reader. IC50 was calculated using GraphPad Prism 5.0.

Series [6] can be described thus: Rat absorption test. The settings on record: SD rats, intragastric 10 mg/kg, plasma. On the procedure: SD Rats were used as experimental animals, and drugs were administered intragastrically at 10 mg/kg (5% DMSO+5% Solutol+90% normal saline). The blood collection time points for intragastric administration were 0.25, 0.5, 1, 2, 4, 6, 8, and 24 h. 0.3 ml of whole blood was taken, and 0.1 ml of plasma was taken after centrifugation and analyzed by LC-MS.

Series [7] concerns Mino cells. Kind of series: Inhibitory activity on Mino cell proliferation (MTS). The settings on record: read-out: Mino IC50, 72 h or 168 h. How it is done: as §2

`CN1CCN([C@@H]2CCCN(c3cnc(C(N)=O)c(Nc4ccc(C5CCN(C[C@H]6CCN(c7ccc8c(c7)C(=O)N(C7CCC(=O)NC7=O)C8=O)C6)CC5)cc4)n3)C2)C1=O` (some centres unmarked): the DNAUC in series [1] is recorded as 1088 AUC (h*ng/mL)/dose (mg/kg). Besides, the “Thalf (min) Human” value in series [2] amounted to 12.4 min. Further, the “Thalf (min) Mouse” value in series [3] is recorded as 47.1 min. Besides, the DC50 in series [4] was < 10 nM.

For `NC(=O)c1ncc(N2CCCCC2)nc1Nc1ccc(C2CCN(C[C@@H]3CCN(c4ccc5c(c4)C(=O)N(C4CCC(=O)NC4=O)C5=O)C3)CC2)cc1` (some centres unmarked), the IC50 in series [5] was found to be 11 nM; in series [7], 10.6 nM. Moreover, in series [6], the DNAUC is listed as 164 AUC (h*ng/mL)/dose (mg/kg). Also, the DC50 in series [4] is < 10 nM.
